Among the data in article PMC10307939 (Pharmacology Research & Perspectives, 2023) are Emax values, retold here.

Sequences of proteins named here, by UniProt entry; tags and fusion partners are left off.
UniProt P41143, whole entry: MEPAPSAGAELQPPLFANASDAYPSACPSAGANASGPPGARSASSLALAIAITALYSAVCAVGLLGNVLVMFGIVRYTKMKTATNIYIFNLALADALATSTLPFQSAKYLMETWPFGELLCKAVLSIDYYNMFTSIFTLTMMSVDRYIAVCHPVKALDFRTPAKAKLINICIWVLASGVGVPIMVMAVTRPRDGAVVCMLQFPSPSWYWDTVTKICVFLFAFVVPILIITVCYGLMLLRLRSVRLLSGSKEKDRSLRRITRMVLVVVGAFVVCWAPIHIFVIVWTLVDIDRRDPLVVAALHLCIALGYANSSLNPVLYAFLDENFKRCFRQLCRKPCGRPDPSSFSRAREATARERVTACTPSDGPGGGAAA

This experiment concerns the target human delta‐opioid receptor (Homo sapiens, UniProt P41143). As to the kind of experiment: Ligand‐stimulated [35S]GTPγS binding, hDOR‐CHO membranes. Type of experiment: biochemical. The conditions noted are these: read-out: DOR E max. Background: Binding of GTPγS marks nucleotide exchange on a G protein.

`CN1CC[C@]23c4c5ccc(O)c4O[C@H]2[C@@H](O)C=C[C@H]3[C@H]1C5` [Morphine, reference compound]: the Emax was found to be 72.6 ± 12%.
